Reference: PubChem BioAssay (NCI)
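Protocol summary: plate cells (96-well), add compound at 5 concentrations, incubate 48 h, interpolate endpoints linearly. Here, GI50 denotes the concentration required for 50% inhibition of growth. TGI marks complete inhibition of growth.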

Assays:
Assay in all cases: DTP human tumour cell line panel, 48 h; in the data active means GI50 below about 0.43 µM; inactive means the rest
K-562 leukemia = tested on: K-562 leukemia
A498 renal = tested on: A498 renal
HT29 colon = tested on: HT29 colon
OVCAR-5 ovarian = tested on: OVCAR-5 ovarian
CCRF-CEM leukemia = tested on: CCRF-CEM leukemia
SK-MEL-28 melanoma = tested on: SK-MEL-28 melanoma
HL-60(TB) leukemia = tested on: HL-60(TB) leukemia
SK-MEL-2 melanoma = tested on: SK-MEL-2 melanoma
OVCAR-8 ovarian = tested on: OVCAR-8 ovarian
OVCAR-4 ovarian = tested on: OVCAR-4 ovarian
NCI-H226 lung = tested on: NCI-H226 lung
SF-268 CNS = tested on: SF-268 CNS
NCI-H522 lung = tested on: NCI-H522 lung
UACC-62 melanoma = tested on: UACC-62 melanoma
LOX IMVI melanoma = tested on: LOX IMVI melanoma
MDA-N = tested on: MDA-N
SN12C renal = tested on: SN12C renal
MOLT-4 leukemia = tested on: MOLT-4 leukemia
RXF 393 renal = tested on: RXF 393 renal
SR leukemia = tested on: SR leukemia
RPMI-8226 leukemia = tested on: RPMI-8226 leukemia
UO-31 renal = tested on: UO-31 renal
SW-620 colon = tested on: SW-620 colon
BT-549 breast = tested on: BT-549 breast
M14 melanoma = tested on: M14 melanoma
NCI/ADR-RES ovarian = tested on: NCI/ADR-RES ovarian
MDA-MB-435 = tested on: MDA-MB-435
MALME-3M melanoma = tested on: MALME-3M melanoma
HS 578T breast = tested on: HS 578T breast
HCT-15 colon = tested on: HCT-15 colon
HCC-2998 colon = tested on: HCC-2998 colon
NCI-H23 lung = tested on: NCI-H23 lung
HOP-92 NSCLC = tested on: HOP-92 NSCLC
A549 NSCLC = tested on: A549 NSCLC
UACC-257 melanoma = tested on: UACC-257 melanoma
OVCAR-3 ovarian = tested on: OVCAR-3 ovarian
NCI-H322M lung = tested on: NCI-H322M lung
786-0 renal = tested on: 786-0 renal
KM12 colon = tested on: KM12 colon
TK-10 renal = tested on: TK-10 renal
NCI-H460 lung = tested on: NCI-H460 lung
EKVX NSCLC = tested on: EKVX NSCLC
SK-MEL-5 melanoma = tested on: SK-MEL-5 melanoma
SF-295 CNS = tested on: SF-295 CNS
U251 CNS = tested on: U251 CNS
DU-145 prostate = tested on: DU-145 prostate
CAKI-1 renal = tested on: CAKI-1 renal
SNB-19 CNS = tested on: SNB-19 CNS
HOP-62 NSCLC = tested on: HOP-62 NSCLC
IGROV1 ovarian = tested on: IGROV1 ovarian
HCT-116 colon = tested on: HCT-116 colon
ACHN renal = tested on: ACHN renal
T-47D breast = tested on: T-47D breast
MDA-MB-231 breast = tested on: MDA-MB-231 breast
PC-3 prostate = tested on: PC-3 prostate

[N-]=[N+]=NCC(O)CN=[N+]=[N-] (stereo not given)
> 100 µM: TGI (K-562 leukemia) | TGI (A498 renal) | TGI (HT29 colon) | TGI (OVCAR-5 ovarian) | TGI (CCRF-CEM leukemia) | TGI (SK-MEL-28 melanoma) | TGI (HL-60(TB) leukemia) | TGI (SK-MEL-2 melanoma) | TGI (OVCAR-8 ovarian) | TGI (OVCAR-4 ovarian) | TGI (NCI-H226 lung) | TGI (SF-268 CNS) | TGI (NCI-H522 lung) | TGI (UACC-62 melanoma) | TGI (LOX IMVI melanoma) | TGI (MDA-N) | TGI (SN12C renal) | TGI (MOLT-4 leukemia) | TGI (RXF 393 renal) | TGI (SR leukemia) | TGI (RPMI-8226 leukemia) | TGI (UO-31 renal) | TGI (SW-620 colon) | TGI (BT-549 breast) | TGI (M14 melanoma) | TGI (NCI/ADR-RES ovarian) | TGI (MDA-MB-435) | TGI (MALME-3M melanoma) | TGI (HS 578T breast) | TGI (HCT-15 colon) | TGI (HCC-2998 colon) | TGI (NCI-H23 lung) | TGI (HOP-92 NSCLC) | TGI (A549 NSCLC) | TGI (UACC-257 melanoma) | TGI (OVCAR-3 ovarian) | TGI (NCI-H322M lung) | TGI (786-0 renal) | TGI (KM12 colon) | TGI (TK-10 renal) | TGI (NCI-H460 lung) | TGI (EKVX NSCLC) | TGI (SK-MEL-5 melanoma) | TGI (SF-295 CNS) | TGI (U251 CNS) | TGI (DU-145 prostate) | TGI (CAKI-1 renal) | TGI (SNB-19 CNS) | TGI (HOP-62 NSCLC) | TGI (IGROV1 ovarian) | TGI (HCT-116 colon) | TGI (ACHN renal) | TGI (T-47D breast) | TGI (MDA-MB-231 breast) | TGI (PC-3 prostate)
inactive: GI50 (K-562 leukemia) > 100 µM | GI50 (A498 renal) > 100 µM | GI50 (HT29 colon) > 100 µM | GI50 (OVCAR-5 ovarian) > 100 µM | GI50 (CCRF-CEM leukemia) > 100 µM | GI50 (SK-MEL-28 melanoma) > 100 µM | GI50 (HL-60(TB) leukemia) > 100 µM | GI50 (SK-MEL-2 melanoma) > 100 µM | GI50 (OVCAR-8 ovarian) > 100 µM | GI50 (OVCAR-4 ovarian) > 100 µM | GI50 (NCI-H226 lung) 95.1 µM | GI50 (SF-268 CNS) > 100 µM | GI50 (NCI-H522 lung) > 100 µM | GI50 (UACC-62 melanoma) > 100 µM | GI50 (LOX IMVI melanoma) > 100 µM | GI50 (MDA-N) > 100 µM | GI50 (SN12C renal) > 100 µM | GI50 (MOLT-4 leukemia) > 100 µM | GI50 (RXF 393 renal) > 100 µM | GI50 (SR leukemia) > 100 µM | GI50 (RPMI-8226 leukemia) > 100 µM | GI50 (UO-31 renal) > 100 µM | GI50 (SW-620 colon) > 100 µM | GI50 (BT-549 breast) > 100 µM | GI50 (M14 melanoma) > 100 µM | GI50 (NCI/ADR-RES ovarian) > 100 µM | GI50 (MDA-MB-435) > 100 µM | GI50 (MALME-3M melanoma) > 100 µM | GI50 (HS 578T breast) > 100 µM | GI50 (HCT-15 colon) > 100 µM | GI50 (HCC-2998 colon) > 100 µM | GI50 (NCI-H23 lung) > 100 µM | GI50 (HOP-92 NSCLC) > 100 µM | GI50 (A549 NSCLC) > 100 µM | GI50 (UACC-257 melanoma) > 100 µM | GI50 (OVCAR-3 ovarian) > 100 µM | GI50 (NCI-H322M lung) > 100 µM | GI50 (786-0 renal) > 100 µM | GI50 (KM12 colon) > 100 µM | GI50 (TK-10 renal) > 100 µM | GI50 (NCI-H460 lung) > 100 µM | GI50 (EKVX NSCLC) > 100 µM | GI50 (SK-MEL-5 melanoma) > 100 µM | GI50 (SF-295 CNS) > 100 µM | GI50 (U251 CNS) > 100 µM | GI50 (DU-145 prostate) > 100 µM | GI50 (CAKI-1 renal) > 100 µM | GI50 (SNB-19 CNS) > 100 µM | GI50 (HOP-62 NSCLC) > 100 µM | GI50 (IGROV1 ovarian) > 100 µM | GI50 (HCT-116 colon) > 100 µM | GI50 (ACHN renal) > 100 µM | GI50 (T-47D breast) > 100 µM | GI50 (MDA-MB-231 breast) > 100 µM | GI50 (PC-3 prostate) > 100 µM
